# Patent US7393448B2, “Method of binding a compound to a sensor surface” (Applied NanoSystems B.V., priority 2002, dated 2008)
substance,measurement,setting,value
glucose oxidase,enzyme activity upon immobilization on the hydrophobin layer,"GCE, phosphate buffer pH 7 (25 mM), glucose added",remained active
same,period over which the electrode maintained its activity,"stored in sealed container, not in liquid, at 4° C., frequently tested",≥ 67 days
